{"source": "patent US6617361B2", "about": "“Behavior chemotherapy” (Be Able, LLC, priority 1999, dated 2003)", "tested_on": "Patient four", "test": "Protocol and results with patient four (morbid obesity, cardiomyopathy)", "format": "in vivo, human", "conditions": "combination Adipex-P 37.5 one-half + Zoloft 25 mg + Aricept 1.25 mg + fenfluramine 5 mg (+ atenolol 12.5 mg)", "procedure": "This person has been in the practice for several years. Their medical problems surround a cardiomyopathy with a low cardiac output state and heart failure. They also have a history of hypertension, hypothyroidism on therapy, and morbid obesity.\nMedication alterations continued over the next several months with increasing Ionamin to 30 mg. Hytrin was added at 2 mg because of prostatic symptoms and in November Pondimin was added.\nAdipex-P 37.5 one-half was added to their medications. […]", "note": "Where a name gives a salt, the structure may show the parent alone.", "data": [{"compound": "CN[C@H]1CC[C@@H](c2ccc(Cl)c(Cl)c2)c2ccccc21", "note": "[Zoloft, sertraline HCl]", "values": [{"measurement": "cardiac index remeasured", "value": "even more improved than previously"}, {"measurement": "body weight the next month", "setting": "from 235 lb June 1999", "value": 218}]}]}
